Measured values from PMC6346213, “Complex‐centric proteome profiling by SEC‐SWATH‐MS” (Molecular Systems Biology, 2019).

T1: COP9 signalosome subunit CSN8 (human (endogenous in HEK293), UniProt Q99627 1-209)
T1 construct: COP9 signalosome subunit 8 (CSN8), human; source: endogenous, HEK293 lysate
T1 sequence (looked up): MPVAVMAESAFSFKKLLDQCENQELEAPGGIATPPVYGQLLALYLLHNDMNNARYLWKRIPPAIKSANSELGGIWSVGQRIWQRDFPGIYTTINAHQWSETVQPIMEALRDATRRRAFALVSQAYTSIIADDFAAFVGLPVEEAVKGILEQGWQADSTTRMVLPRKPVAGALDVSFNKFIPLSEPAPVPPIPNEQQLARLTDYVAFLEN

B1: COP9 signalosome subunit CSN3 (natural protein, human (endogenous in HEK293), UniProt Q9UNS2 1-423, looked up)
chain: MASALEQFVNSVRQLSAQGQMTQLCELINKSGELLAKNLSHLDTVLGALDVQEHSLGVLAVLFVKFSMPSVPDFETLFSQVQLFISTCNGEHIRYATDTFAGLCHQLTNALVERKQPLRGIGILKQAIDKMQMNTNQLTSIHADLCQLCLLAKCFKPALPYLDVDMMDICKENGAYDAKHFLCYYYYGGMIYTGLKNFERALYFYEQAITTPAMAVSHIMLESYKKYILVSLILLGKVQQLPKYTSQIVGRFIKPLSNAYHELAQVYSTNNPSELRNLVNKHSETFTRDNNMGLVKQCLSSLYKKNIQRLTKTFLTLSLQDMASRVQLSGPQEAEKYVLHMIEDGEIFASINQKDGMVSFHDNPEKYNNPAMLHNIDQEMLKCIELDERLKAMDQEITVNPQFVQKSMGSQEDDSGNKPSSYS
notes: COP9 signalosome subunit 3 (CSN3), human; source: endogenous, HEK293 lysate

Key:
[1] = biological target: T1, COP9 signalosome subunit CSN8; assay: SEC; co-fractionation of native HEK293 lysate (freeze-thaw, 0.5% NP-40); Yarra-SEC-4000, 50 mM HEPES pH 7.5, 150 mM NaCl, 4°C; 81 fractions quantified by SWATH-MS; co-elution of protein profiles scored with CCprofiler (5% FDR) and by manual inspection; settings: partners not purified
[2] = biological target: B1; assay: as above; settings: partners not purified

Row | Binder | stoichiometry N [1] | stoichiometry N [2]
1 | COP9 signalosome subunit CSN1 (natural protein, human (endogenous in HEK293), UniProt Q13098 1-491, looked up, COP9 signalosome subunit 1 (CSN1), human; source: endogenous, HEK293 lysate) MPLPVQVFNLQGAVEPMQIDVDPQEDPQNAPDVNYVVENPSLDLEQYAASYSGLMRIERLQFIADHCPTLRVEALKMALSFVQRTFNVDMYEEIHRKLSEATRSSLRELQNAPDAIPESGVEPPALDTAWVEATRKKALLKLEKLDTDLKNYKGNSIKESIRRGHDDLGDHYLDCGDLSNALKCYSRARDYCTSAKHVINMCLNVIKVSVYLQNWSHVLSYVSKAESTPEIAEQRGERDSQTQAILTKLKCAAGLAELAARKYKQAAKCLLLASFDHCDFPELLSPSNVAIYGGLCALATFDRQELQRNVISSSSFKLFLELEPQVRDIIFKFYESKYASCLKMLDEMKDNLLLDMYLAPHVRTLYTQIRNRALIQYFSPYVSADMHRMAAAFNTTVAALEDELTQLILEGLISARVDSHSKILYARDVDQRSTTFEKSLLMGKEFQRRAKAMMLRAAVLRNQIHVKSPPREGSQGELTPANSQSRMSTNM | 1 | 1
2 | B1 | 1 | 
